Source: patent publication US20020019344A1, “Methods of preventing allograft rejection” (priority 2000, published 2002)

System: IL-2 secretion in human T lymphocytes
Test: Inhibition of PHA/PMA-induced IL-2 secretion in human T lymphocytes
Type: cell-based
Conditions: Example 1

CN(CCOc1ccc(CC2SC(=O)NC2=O)cc1)c1ccccn1 (stereo not shown) [rosiglitazone]
concentration at which inhibition of IL-2 production was evident: 0.1 µmol/L
